Consider 1 molecule from patent US20260317384A1, “SMALL MOLECULE HUMANIN MIMETICS” (The Regents of the University Of California, priority 2023, published 2026).

Amino acid sequences for entries named in this document (tags omitted). Residues count along the entry.
UniProt P40189, 23-918 limits assumed: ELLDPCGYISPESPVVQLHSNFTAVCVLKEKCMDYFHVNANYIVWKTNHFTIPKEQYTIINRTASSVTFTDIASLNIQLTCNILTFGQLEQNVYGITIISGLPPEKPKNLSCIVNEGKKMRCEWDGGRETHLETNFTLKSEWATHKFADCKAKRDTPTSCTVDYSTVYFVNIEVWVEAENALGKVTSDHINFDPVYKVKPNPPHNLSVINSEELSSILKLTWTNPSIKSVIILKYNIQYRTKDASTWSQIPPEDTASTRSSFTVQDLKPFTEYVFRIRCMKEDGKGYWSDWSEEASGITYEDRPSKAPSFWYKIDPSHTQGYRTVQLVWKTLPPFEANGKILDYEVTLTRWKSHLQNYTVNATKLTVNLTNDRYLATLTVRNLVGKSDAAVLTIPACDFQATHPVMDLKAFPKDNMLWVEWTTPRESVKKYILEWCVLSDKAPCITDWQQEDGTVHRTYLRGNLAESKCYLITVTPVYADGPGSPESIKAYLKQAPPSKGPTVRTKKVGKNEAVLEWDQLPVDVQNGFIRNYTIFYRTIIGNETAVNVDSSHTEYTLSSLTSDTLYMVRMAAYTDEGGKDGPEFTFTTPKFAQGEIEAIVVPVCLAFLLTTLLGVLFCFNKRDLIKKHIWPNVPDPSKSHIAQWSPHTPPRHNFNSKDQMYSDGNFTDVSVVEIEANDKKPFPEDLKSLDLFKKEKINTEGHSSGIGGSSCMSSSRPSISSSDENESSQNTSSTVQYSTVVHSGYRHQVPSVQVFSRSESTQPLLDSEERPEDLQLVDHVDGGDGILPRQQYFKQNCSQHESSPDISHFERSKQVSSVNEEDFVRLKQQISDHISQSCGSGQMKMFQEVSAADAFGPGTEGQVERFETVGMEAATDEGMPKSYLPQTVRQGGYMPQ

Broadly, the EC50 is the concentration needed to bring the measured effect to its halfway point.

In this assay the target is gp130 receptor (Homo sapiens, UniProt P40189). As to the kind of experiment: p-gp130 (p-Tyr) ELISA, HTS validation and dose response in U87-MG cells. The note with it: read-out: EC50 (p-gp130 enhancement), FIG. 6 screening of analogs. From the text:
An ELISA assay for the evaluation of the p-gp130 levels was developed. This was a commercial ELISA—DuoSet ELISA from R&D systems (cat #DYC3407-2) and detected the tyrosine phosphorylation of gp130. […] In addition, a commercially available p-AKT (1,2,3) AlphaLISA kit was used (PE cat #ALSU-PAKT-B-HV) for the HTS assay.
Small molecules that act as HN mimetics represent a new class of AD therapeutics. Through screening, validated hits that increase both p-gp-130 and p-Akt levels were identified. Human glioblastoma cells were used, U87-MG. Several hits that enhance p-gp 130 were identified as well as several compounds that can increase p-AKT (FIG. 3).
Into a 96 well plate was added 99 μL of warm DMEM/F12 without FBS, then 1 uL of compounds at 1 mM were loaded into the96 well plate. These generated the compounds at 2×. Into a 96 well plate was added IL6/IL6R solution to achieve 6.6×10−4 mg/mL and 3.3×10−4 mg/mL respectively, this is 2× concentration. For this, primary EL6 stock (0.1 mg/mL) was diluted150-fold and IL6R stock (0.1 mg/mL) 300-fold to treat cells with final concentration of 6.6×10−4 mg/mL and 3.3×10−4 mg/mL respectively. 10 ml of Sample Diluent Concentrate 2 (2X)(Part #895891/DYC002)+10 ml ddH2O+200 ul of 100 mM activated Na3VO4 (aliquots at −20C)+20 ul of 10 mg/ml aprotinin (stock at 4C)+20 ul of 10 mg/ml leupeptin (aliquots at −20C)+200 ul PIC-protected from light. […]

Each structure is given as a SMILES string.

Regarding `CCC(=O)Nc1ccc2nc(C)n(-c3cccc(Br)c3)c(=O)c2c1`, the EC50 is less than 0.1 µM.
